Measurements reported in article PMC7244497 (Scientific Reports, 2020).

Sequences of proteins named here, by UniProt entry; tags and fusion partners are left off.
UniProt P41143, whole entry: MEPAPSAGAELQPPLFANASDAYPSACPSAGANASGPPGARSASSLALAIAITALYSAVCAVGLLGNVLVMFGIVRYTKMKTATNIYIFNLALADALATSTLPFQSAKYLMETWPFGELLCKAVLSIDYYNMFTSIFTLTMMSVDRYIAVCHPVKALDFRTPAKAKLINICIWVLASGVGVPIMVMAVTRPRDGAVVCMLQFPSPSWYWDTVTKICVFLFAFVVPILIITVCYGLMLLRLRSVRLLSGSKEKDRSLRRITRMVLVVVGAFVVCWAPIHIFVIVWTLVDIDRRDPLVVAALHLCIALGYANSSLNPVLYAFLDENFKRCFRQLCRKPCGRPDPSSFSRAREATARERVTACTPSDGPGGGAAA

What was measured:
[1] = biological target: T1, HA-hDOP receptor (Homo sapiens, UniProt P41143)
[2] = biological target: T1, HA-hDOP receptor; remark: listed apart in the source
[3] = biological target: T1, HA-hDOP receptor; test: cell-based; assay type: cell-based; parameters: host or cells: AtT20-D16v-F2 (AtT20) cells, stably transfected; details: for Emax: AtT20, read-out: Emax in % of DPDPE

Compound	Heterologous phosphorylation at T361 or S363 (PKC/PKA activation) [1]	Antagonist effect on DPDPE-induced receptor internalization [2]	Antagonist effect on DPDPE-induced phosphorylation at T361 and S363 [1]	Agonist-induced DOP receptor internalization [2]	EC50 [3] [µM]	Emax [3] [%]	Agonist-induced DOP receptor phosphorylation at T361 and S363 [1]	also measured
C=C[C@@]1(C)CC(=O)[C@]2(O)[C@@]3(C)[C@@H](O)CCC(C)(C)[C@@H]3[C@H](O)[C@H](OC(C)=O)[C@@]2(C)O1 [forskolin]	Neither forskolin nor PMA induced any detectable phosphorylation							
Oc1ccc2c3c1O[C@H]1c4[nH]c5ccccc5c4C[C@@]4(O)[C@@H](C2)N(CC2CC2)CC[C@]314 [naltrindole]		block	block					Effect on DPDPE-induced hyperpolarization [3]: reversal of the DPDPE-induced hyperpolarization towards baseline level
CCN(CC)C(=O)c1ccc(C2=CC3(CCNCC3)Oc3cccc(O)c32)cc1 [ADL5859, N,N-diethyl-4-(5-hydroxyspiro[chromene-2,4′-piperidine]-4-yl)benzamide]				receptor internalization were detectable	0.057 ± 0.0109	84.4	Robust phosphorylation	
CN1CC[C@]23c4c5ccc(O)c4O[C@H]2[C@@H](O[C@@H]2O[C@H](C(=O)O)[C@@H](O)[C@H](O)[C@H]2O)C=C[C@H]3[C@H]1C5 [M6G, morphine-6-glucuronide]				weak receptor internalization	1.2 ± 0.401	54.6	phosphorylation only at S363	Emax, GIRK channel activation [3]: 13.73 ± 0.86
CCCCCCCCCCCCCC(=O)O[C@@H]1[C@@H](C)[C@@]2(O)[C@@H](C=C(CO)C[C@]3(O)C(=O)C(C)=C[C@@H]23)[C@@H]2C(C)(C)[C@]12OC(C)=O [PMA, phorbol-12-myristat-13-acetat]	Neither forskolin nor PMA induced any detectable phosphorylation							
Oc1ccc2c3c1O[C@H]1c4oc5ccccc5c4C[C@@]4(O)[C@@H](C2)N(CC2CC2)CC[C@]314 [naltriben]		block	block					
